Ab-14 light chain CDR variants: yeast mating affinities

Reference: Li et al. 2023, doi:10.1038/s41467-023-39022-2. File: FLAb, binding data.

Binding partner: SARS-CoV-2 spike HR2 peptide, sequence PDVDLGDISGINAS.

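The parent was found by panning a naive human phage display library on the peptide. These sequences belong to a second round, designed from the earlier measurements on random variants of the parent. Their group label is 14L_En_Gen (En: ensemble of fine-tuned language models; Gen: genetic algorithm). Affinity was read by AlphaSeq, a pooled yeast mating assay with surface-displayed partners. Mating (16 h, 30 °C) was followed by selection of diploids and sequencing of their barcodes. A regression on co-assayed BCL2-family reference pairs converts the normalised counts of each replicate to an apparent Kd. Each pool was mated in six replicate cultures.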

Parent: Ab-14, a human scFv built as VH, a 15-residue (Gly4Ser)3 linker, VL. Only the CDRs of the light chain vary.
VH: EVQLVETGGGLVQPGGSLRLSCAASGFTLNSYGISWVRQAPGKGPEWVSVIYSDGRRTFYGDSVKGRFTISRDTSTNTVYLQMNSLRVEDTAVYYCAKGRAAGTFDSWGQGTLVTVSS
VL: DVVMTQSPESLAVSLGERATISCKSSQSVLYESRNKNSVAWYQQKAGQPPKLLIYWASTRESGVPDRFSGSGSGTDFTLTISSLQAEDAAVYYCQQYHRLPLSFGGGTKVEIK

Variants are written as CDR1, CDR2 and CDR3 of the light chain (limits as in the source). Parent: KSSQSVLYESRNKNSVA, WASTRES, QQYHRLPLS.
The read-out is the apparent dissociation constant on a log10 scale (nM): the lower, the stronger.
"n.d." means that the variant was in the library but no mating with the target was seen in that replicate; the authors take this as a sign of poor binding, and no number exists.
Background: pairings of all light chain designs with three empty control strains gave a value in 4% of cases (median 2.64, 5th percentile 1.59). Values in that range, when seen in few replicates, are hard to tell from nonspecific mating. The control count says in how many pairings with the empty strains this scFv gave a signal, with their mean in brackets.

CDR-L1 | CDR-L2 | CDR-L3 | log10 Kd (nM) by replicate | control signals
MMSQVTGQGQRHRNNVA | QTSEREP | QQYDRLPLI | 0.80 0.96 1.25 0.75 0.95 1.15 | 0 of 18
MISQLYNMGQFAINSVA | QASQRCN | QQYDRLPLM | n.d. n.d. 1.90 2.69 2.41 1.00 | 0 of 18
NISHFMDVTAKNINNVA | EMTMREE | QQYHHLPLS | n.d. n.d. n.d. n.d. n.d. n.d. | 0 of 18
KLSSVTGHMSMAKNNVA | EMETREK | QQYNRLPLS | -0.11 -0.17 -0.31 -0.24 -0.60 -0.33 | 2 of 18 (1.61)
KISQMVRVGSTHQNSIA | EEAKRAD | QQYHRLPLS | 0.37 0.37 0.39 0.16 0.34 0.14 | 0 of 18
TISMVMNHMTKNHQNVA | NQDMREN | QQYDRLPLS | 0.45 0.82 0.42 0.38 0.95 0.47 | 0 of 18
HLSHMSGVESVKHNSVA | ENSTREQ | QQYDRLPLA | n.d. n.d. n.d. n.d. n.d. 3.37 | 1 of 18 (1.92)
IVSQLMIWGMHLKNSIA | EAQTRVN | QQYDRLPLF | n.d. n.d. n.d. n.d. n.d. 2.10 | 0 of 18
KVSEFMRGLMQRKDSIA | DNNTRGA | QQYDRLPLS | 1.41 1.08 1.18 1.33 1.83 1.81 | 3 of 18 (2.69)
SISGFMKTLSAHRNSVA | DMTNRED | QQYDRLPLS | 0.68 0.31 0.41 0.48 0.85 0.44 | 1 of 18 (2.07)
MVSQLMVWGMHARNSIA | EAQTRIN | QQYDRLPLV | 1.13 n.d. 2.59 2.17 n.d. n.d. | 0 of 18
HITYGMYVAGRHSSSIA | QAETRAK | QQYDRLPLS | 1.09 0.55 0.73 0.84 0.53 0.63 | 1 of 18 (2.17)
TISQLYNMGQFAINSVA | QASIRNA | QQYDRLPLA | n.d. n.d. n.d. n.d. n.d. n.d. | 0 of 18
KIGDTLNQLMHKKNNVA | DLVTREN | QQYYRLPLS | 0.22 0.32 0.15 0.39 0.49 0.58 | 1 of 18 (3.42)
MMSNVTGLGQRTRNNVA | QTSTREP | QQYDRLPLI | 1.10 1.21 1.21 1.07 0.96 1.22 | 1 of 18 (2.53)
KVSEFMRGLMMRKDSIA | DNVTRNS | QQYDRLPLS | 3.05 1.62 1.32 2.08 1.41 2.74 | 3 of 18 (2.56)
KIGATLNQMMHKKNNVA | DLVTREN | QQYFRLPLS | 0.54 0.72 0.72 0.42 0.80 1.11 | 0 of 18
TLYGLSNSMSINKNSVA | EMTTRED | QQYDRLPLV | 1.68 1.61 1.39 1.08 1.54 1.29 | 1 of 18 (2.73)
MISQLYNMGSFAINSVA | QASLRNE | QQYDRLPLI | 2.69 1.79 1.64 1.76 0.82 1.26 | 0 of 18
MMSQVTGLGQRQRNNVA | QTSTRED | QQYDRLPLI | 0.43 0.15 0.13 -0.01 0.09 0.17 | 3 of 18 (2.48)
MLSQMWALGMKVSNSVA | QVSTRFE | QQYDRLPLE | n.d. 1.61 2.35 n.d. n.d. 1.40 | 0 of 18
MISHVMNTLTRNGNNVA | DLAERED | QQYFRLPLS | 1.38 1.03 0.81 0.97 0.53 0.67 | 0 of 18
HITYGMYVSGRHTSNIA | QAETRAK | QQYDRLPLI | 0.99 1.10 1.14 0.60 0.95 1.46 | 0 of 18
SLGLVTMLEYAGRNSVA | NNSTRSD | QQYDRLPLS | n.d. 3.17 n.d. 2.03 2.80 2.59 | 1 of 18 (2.44)
HLGLVTMLEEAVRNSVA | NNSTREQ | QQYDRLPLS | n.d. n.d. 1.24 n.d. n.d. n.d. | 0 of 18
MISQLYNMGTFAINSVA | QASLRNE | QQYDRLPLA | n.d. n.d. n.d. n.d. n.d. n.d. | 0 of 18
HITYGMMVMGRHSKSIA | QAEERAK | QQYDRLPLS | 0.90 0.88 1.05 0.75 1.33 1.02 | 1 of 18 (2.71)
HITYGMQVMGRHSKSIA | QAEERAR | QQYDRLPLE | 1.08 0.78 1.02 0.87 1.13 1.20 | 0 of 18
KIGMTLNQLMHQKNNVA | DLVMREQ | QQYHRLPLS | 0.43 0.01 3.25 0.71 0.23 0.48 | 0 of 18
KLSMITGHMSVSKNNVA | EMVTREK | QQYNRLPLS | 0.83 0.80 0.56 0.44 0.65 0.46 | 0 of 18
MMSQVTGLGQRHRNNVA | QTSEREP | QQYDRLPLV | 0.94 0.42 0.40 0.45 0.53 0.64 | 4 of 18 (3.20)
MIGEFLMQGQYKKNSVA | QANLRAE | QHYHRLPLE | 1.49 0.71 0.53 0.82 1.25 1.04 | 0 of 18
MVSQLMLWGLHAKNSIA | EAQMRLN | QQYDRLPLI | n.d. n.d. 2.22 n.d. n.d. 2.34 | 1 of 18 (3.27)
TLYGLSMSMSKNKNSVA | EMTTREK | QQYDRLPLM | 0.97 1.02 0.89 0.84 0.75 0.97 | 2 of 18 (2.85)
NLQGMTAHETVKEKNIA | ERSTREQ | QQYNRLPLS | 0.61 0.76 0.55 0.38 1.00 0.21 | 1 of 18 (3.81)
KIGMTLNQLYQKNNNVA | DLVTREN | QQYHRLPLS | 0.38 0.41 0.14 0.57 0.26 0.44 | 0 of 18
HMSMLTLQGLRHRNSVA | QMTTREN | QQYDRLPLS | 0.83 0.68 0.62 0.70 0.67 1.03 | 1 of 18 (2.17)
KLSMVTGHQLMSKDNVA | EMVTREN | QQYNRLPLS | 0.60 0.76 0.52 0.42 0.89 1.73 | 1 of 18 (3.87)
TISQMTSQFSQTINNVA | EVSTRCK | QQYDRLPLA | 0.53 0.59 0.42 0.34 0.29 0.46 | 3 of 18 (2.88)
IVSQLMLWGMKAKNSIA | EAVTRLN | QQYDRLPLF | n.d. n.d. n.d. 1.42 1.20 n.d. | 0 of 18
MISQLMNMGQFAINSVA | QASIRNA | QQYDRLPLV | n.d. 1.64 2.15 2.24 1.80 3.19 | 0 of 18
MLAQMWGIGMKAKNSVA | QASIRFN | QQYDRLPLI | n.d. n.d. n.d. 1.08 n.d. n.d. | 1 of 18 (0.95)
KISMLINMTFEQSNNVA | EMATREK | QQYNRLPLS | 0.39 0.81 -0.26 1.08 0.27 1.38 | 0 of 18
KLLQNTGAGYRWAQNVA | HMSTRED | QQYHRLPFV | 0.66 0.30 0.46 0.33 0.37 0.64 | 0 of 18
HLKQVLNGVNKKSNSVA | HMNTREE | QQYDRLPLV | 0.79 0.77 0.94 1.11 1.00 0.94 | 0 of 18
KVSSFMRGLMMRKDSIA | DNETRSQ | QQYDRLPLS | 2.10 1.68 1.19 3.85 1.14 n.d. | 2 of 18 (3.20)
HLSMLAGVESVKHNSVA | ENSTREQ | QQYDRLPLM | 1.76 4.70 2.75 2.21 1.91 2.83 | 1 of 18 (1.88)
TIGSTLMYGYRNRNNVA | EVSERLN | QQYDRLPLF | 0.62 0.45 0.76 0.05 0.53 1.36 | 0 of 18
QLSSITGHYSMIKNNVA | EMETREN | QQYDRLPLS | 0.42 0.20 0.51 0.09 0.42 0.50 | 0 of 18

A selection of 4 entries from above:

CDR-L1 | CDR-L2 | CDR-L3 | log10 Kd (nM) by replicate | control signals
MLSQMWALGMKVSNSVA | QVSTRFE | QQYDRLPLE | n.d. 1.61 2.35 n.d. n.d. 1.40 | 0 of 18
HITYGMYVAGRHSSSIA | QAETRAK | QQYDRLPLS | 1.09 0.55 0.73 0.84 0.53 0.63 | 1 of 18 (2.17)
TISMVMNHMTKNHQNVA | NQDMREN | QQYDRLPLS | 0.45 0.82 0.42 0.38 0.95 0.47 | 0 of 18
TISQMTSQFSQTINNVA | EVSTRCK | QQYDRLPLA | 0.53 0.59 0.42 0.34 0.29 0.46 | 3 of 18 (2.88)

In the paper, a design with two or fewer of six values counts as a poor binder.
The range of this assay differs from that of the first round, and the authors advise against merging the two.